Key:
ovine COX-1 = ovine COX-1 (Ovis aries (Sheep), UniProt P05979); experiment: colorimetric COX (ovine) inhibitor screening assay kit; conditions: for COX-1 [% inhibition at 50 μM]: ovine COX-1, 50 μM; for IC50: read-out: COX-1 IC50, ovine COX-1
ovine COX-2 = ovine COX-2 (Ovis aries (Sheep), UniProt P79208); experiment: as above; conditions: for COX-2 [% inhibition at 50 μM]: ovine COX-2, 50 μM

By UniProt entry, the sequences of proteins in these tests, tags left out. Residues count along the entry.
UniProt P05979, 25-600 limits assumed: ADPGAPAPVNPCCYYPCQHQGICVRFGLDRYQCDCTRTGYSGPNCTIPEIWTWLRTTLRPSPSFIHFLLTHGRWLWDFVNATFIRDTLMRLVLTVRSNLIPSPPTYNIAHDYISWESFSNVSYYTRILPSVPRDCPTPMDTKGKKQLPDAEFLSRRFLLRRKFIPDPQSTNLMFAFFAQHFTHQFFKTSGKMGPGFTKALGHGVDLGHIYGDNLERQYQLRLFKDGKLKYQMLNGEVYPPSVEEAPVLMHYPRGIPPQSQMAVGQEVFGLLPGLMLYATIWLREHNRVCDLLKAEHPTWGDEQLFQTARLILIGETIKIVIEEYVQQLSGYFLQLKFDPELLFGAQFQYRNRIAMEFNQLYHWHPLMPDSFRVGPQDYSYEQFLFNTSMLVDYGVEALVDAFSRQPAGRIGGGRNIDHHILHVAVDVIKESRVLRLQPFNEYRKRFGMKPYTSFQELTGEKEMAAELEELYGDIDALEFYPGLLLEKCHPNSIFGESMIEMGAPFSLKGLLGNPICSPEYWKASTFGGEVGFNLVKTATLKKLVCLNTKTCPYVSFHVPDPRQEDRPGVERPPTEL
UniProt P79208, 17-603 limits assumed: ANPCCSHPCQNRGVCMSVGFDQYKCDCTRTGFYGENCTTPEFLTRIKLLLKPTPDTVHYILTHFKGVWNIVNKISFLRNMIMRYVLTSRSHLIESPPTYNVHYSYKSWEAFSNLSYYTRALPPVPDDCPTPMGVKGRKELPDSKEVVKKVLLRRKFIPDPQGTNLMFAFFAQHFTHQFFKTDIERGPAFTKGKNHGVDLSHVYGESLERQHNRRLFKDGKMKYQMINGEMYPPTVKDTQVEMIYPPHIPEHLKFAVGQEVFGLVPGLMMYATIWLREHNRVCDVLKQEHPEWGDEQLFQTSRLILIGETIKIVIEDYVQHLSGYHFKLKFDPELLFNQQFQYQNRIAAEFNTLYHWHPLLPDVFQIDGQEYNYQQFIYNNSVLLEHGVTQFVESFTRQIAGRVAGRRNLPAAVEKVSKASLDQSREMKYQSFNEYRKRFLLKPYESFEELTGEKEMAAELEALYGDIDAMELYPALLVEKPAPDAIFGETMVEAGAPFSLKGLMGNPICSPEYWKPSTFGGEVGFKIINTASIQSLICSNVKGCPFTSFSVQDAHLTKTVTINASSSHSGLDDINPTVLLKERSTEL

SMILES	COX-1 [% inhibition at 50 μM] (ovine COX-1)	COX-2 [% inhibition at 50 μM] (ovine COX-2)	other results
COc1ccc(-c2noc(CC(=O)NCCCCC(=O)O)c2-c2ccc(OC)cc2)cc1	[74] %	[22] %	
COc1ccc(-c2noc(CC(=O)NCCCCC(=O)NCC(=O)O)c2-c2ccc(OC)cc2)cc1	[23] %	[8] %	
COC(=O)CCCCNC(=O)Cc1onc(-c2ccc(OC)cc2)c1-c1ccc(OC)cc1	[91] %	[65] %	
COc1ccc(-c2noc(CC(=O)NCCCCCCCCCCC(=O)OC[C@H]3OC(O)[C@H](O)[C@@H](O)[C@H]3O)c2-c2ccc(OC)cc2)cc1 (some centres unmarked)	[90] %		
COc1ccc(-c2noc(CC(=O)Nc3ccc(-c4ccc(NC(=O)CCCCCNc5ccc([N+](=O)[O-])c6nonc56)cc4)cc3)c2-c2ccc(OC)cc2)cc1	[54] %		IC50 (ovine COX-1): 39 µM; COX-2 IC50 (μM) (ovine COX-2; ovine COX-2): not active
COc1ccc(-c2noc(CC(=O)NCCCCNC(=O)CN)c2-c2ccc(OC)cc2)cc1			COX-1 [% inhibition at 50 μM] (ovine COX-1; tested form: HCl): [43] %; COX-2 [% inhibition at 50 μM] (ovine COX-2; tested form: HCl): [49] %
CCCCC/C=C\C/C=C\C/C=C\C/C=C\CCCC(=O)Nc1ccc(-c2ccc(NC(=O)Cc3onc(-c4ccc(OC)cc4)c3-c3ccc(OC)cc3)cc2)cc1		[60] %	
COc1ccc(-c2noc(CC(=O)NCCCCN)c2-c2ccc(OC)cc2)cc1			COX-1 [% inhibition at 50 μM] (ovine COX-1; tested form: HCl): [94] %
COC(=O)CNC(=O)CCCCNC(=O)Cc1onc(-c2ccc(OC)cc2)c1-c1ccc(OC)cc1	[76] %	[49] %	
CCN=c1cc2oc3cc(NCC)c(C)cc3c(-c3ccccc3C(=O)NCCCCNC(=O)Cc3onc(-c4ccc(Cl)o4)c3-c3ccccc3)c-2cc1C			COX-1 [% inhibition at 50 μM] (ovine COX-1; tested form: chloride): [69] %; COX-2 [% inhibition at 50 μM] (ovine COX-2; tested form: chloride): −[0] %
COc1ccc(-c2noc(CC(=O)NCCCCCCCCCCCCNC(=O)Cc3onc(-c4ccc(OC)cc4)c3-c3ccc(OC)cc3)c2-c2ccc(OC)cc2)cc1			IC50 (ovine COX-1): 7.1 µM; IC50 (ovine COX-2; read-out: COX-2 IC50, ovine COX-2): > 50 µM
